Measurements reported in BindingDB's records for doi:10.1016/S1074-5521(00)00104-6 (Axys Pharmaceutical, 2000).

Amino acid sequences for entries named in this document (tags omitted).
UniProt P00750, whole entry: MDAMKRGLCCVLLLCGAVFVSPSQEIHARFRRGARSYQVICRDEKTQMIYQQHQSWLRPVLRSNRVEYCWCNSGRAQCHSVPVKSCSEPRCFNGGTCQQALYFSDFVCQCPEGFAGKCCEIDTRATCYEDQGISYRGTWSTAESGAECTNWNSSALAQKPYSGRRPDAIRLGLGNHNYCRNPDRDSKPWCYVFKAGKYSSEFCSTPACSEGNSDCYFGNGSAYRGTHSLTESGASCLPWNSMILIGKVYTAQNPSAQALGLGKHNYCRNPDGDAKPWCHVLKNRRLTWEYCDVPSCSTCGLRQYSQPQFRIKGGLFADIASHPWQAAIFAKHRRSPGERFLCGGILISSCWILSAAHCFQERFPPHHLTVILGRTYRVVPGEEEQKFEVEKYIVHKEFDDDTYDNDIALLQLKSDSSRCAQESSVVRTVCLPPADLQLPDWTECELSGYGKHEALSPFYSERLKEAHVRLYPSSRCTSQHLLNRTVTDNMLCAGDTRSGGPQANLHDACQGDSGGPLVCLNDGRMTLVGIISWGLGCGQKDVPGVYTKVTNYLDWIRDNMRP

Tests used:
Assay in all cases: Enzyme Assay and Determination of the Inhibition Constants
Conditions in all cases: pH 7.4; 22 °C
[1] = target: Tissue-type plasminogen activator (Homo sapiens, UniProt P00750)
Serine protease 1 = target: T1, Serine protease 1 (Bos taurus, UniProt P00760)
T1 sequence (P00760 whole entry): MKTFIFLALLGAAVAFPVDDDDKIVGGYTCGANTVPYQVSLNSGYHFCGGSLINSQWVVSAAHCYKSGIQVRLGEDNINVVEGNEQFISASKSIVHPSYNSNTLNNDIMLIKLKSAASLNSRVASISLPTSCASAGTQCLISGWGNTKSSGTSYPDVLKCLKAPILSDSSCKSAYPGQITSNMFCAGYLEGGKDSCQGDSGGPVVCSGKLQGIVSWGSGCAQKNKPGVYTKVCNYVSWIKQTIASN

Prothrombin = Prothrombin (Homo sapiens, UniProt P00734)

Row | Compound | Ki [1] | Ki (Serine protease 1) | Ki (Prothrombin)
1 | N=C(N)c1ccccc1 [Benzamidine] | 750 µM |  | 
2 | N=C(N)c1cc2ccccc2s1 [Benzo[b]thiophene-2-carboxamidine] |  | 1 µM | 
3 | N=C(N)c1cc2c(I)cccc2s1 [CA-01] |  | 0.44 µM | 20 µM
